Values quoted from earlier work in patent US9259397B2 (Purdue Pharma L.P., priority 2000, dated 2016).

Protein sequences, listed by entry. Tags and fused reporters are not part of them.
UniProt P35367, whole entry: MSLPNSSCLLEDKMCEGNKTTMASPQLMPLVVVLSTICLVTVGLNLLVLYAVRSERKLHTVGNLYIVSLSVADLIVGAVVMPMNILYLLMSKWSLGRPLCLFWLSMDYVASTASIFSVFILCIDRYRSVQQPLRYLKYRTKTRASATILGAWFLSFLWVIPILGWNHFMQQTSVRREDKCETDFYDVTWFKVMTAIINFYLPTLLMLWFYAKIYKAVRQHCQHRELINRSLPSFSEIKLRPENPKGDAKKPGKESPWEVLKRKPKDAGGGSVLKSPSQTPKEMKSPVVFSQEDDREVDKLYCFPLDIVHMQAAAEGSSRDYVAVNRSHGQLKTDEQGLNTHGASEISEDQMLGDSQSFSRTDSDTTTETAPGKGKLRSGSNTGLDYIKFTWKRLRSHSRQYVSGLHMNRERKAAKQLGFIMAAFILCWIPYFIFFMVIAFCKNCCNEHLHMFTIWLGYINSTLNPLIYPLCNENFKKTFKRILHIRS

How the values were obtained:
[1] = loratadine therapy
histamine H1 receptor = histamine H1 receptor (Homo sapiens, UniProt P35367); conditions: in vivo

ethyl 4-(8-chloro-5,6-dihydro-11H-benzo cyclohepta pyridin-11-ylidene)-1-piperidinecarboxylate [loratadine]
most common adverse side effects [1]: headache, somnolence, fatigue, and dry mouth
duration of antihistamine activity (histamine H1 receptor): > 24 h
maximum of antihistamine activity (histamine H1 receptor): 8 to 12 h
onset of antihistamine activity (histamine H1 receptor): 1 to 3 h
tolerance to antihistamine effect (histamine H1 receptor): no evidence of tolerance
